This note sets out measurements from PubChem BioAssay (Tox21).

The chains behind the UniProt entries cited, without tags or fusion partners.
UniProt P03372, whole entry: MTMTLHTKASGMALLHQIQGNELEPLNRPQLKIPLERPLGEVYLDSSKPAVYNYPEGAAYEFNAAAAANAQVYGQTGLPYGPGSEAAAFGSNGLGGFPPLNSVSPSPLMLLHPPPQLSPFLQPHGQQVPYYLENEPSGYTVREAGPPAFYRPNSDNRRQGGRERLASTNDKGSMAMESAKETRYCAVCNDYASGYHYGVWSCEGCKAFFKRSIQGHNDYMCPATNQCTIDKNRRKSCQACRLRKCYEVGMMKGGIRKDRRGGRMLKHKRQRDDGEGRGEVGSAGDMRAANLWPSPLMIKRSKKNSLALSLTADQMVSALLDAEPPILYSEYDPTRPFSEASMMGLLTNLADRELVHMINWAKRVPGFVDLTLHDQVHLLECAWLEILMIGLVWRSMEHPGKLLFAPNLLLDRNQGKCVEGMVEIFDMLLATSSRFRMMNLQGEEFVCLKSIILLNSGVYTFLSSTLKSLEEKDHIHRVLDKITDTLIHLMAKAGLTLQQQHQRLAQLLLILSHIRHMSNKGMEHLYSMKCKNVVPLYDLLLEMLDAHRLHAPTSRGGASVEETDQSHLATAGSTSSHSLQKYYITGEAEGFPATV
UniProt P10275, whole entry: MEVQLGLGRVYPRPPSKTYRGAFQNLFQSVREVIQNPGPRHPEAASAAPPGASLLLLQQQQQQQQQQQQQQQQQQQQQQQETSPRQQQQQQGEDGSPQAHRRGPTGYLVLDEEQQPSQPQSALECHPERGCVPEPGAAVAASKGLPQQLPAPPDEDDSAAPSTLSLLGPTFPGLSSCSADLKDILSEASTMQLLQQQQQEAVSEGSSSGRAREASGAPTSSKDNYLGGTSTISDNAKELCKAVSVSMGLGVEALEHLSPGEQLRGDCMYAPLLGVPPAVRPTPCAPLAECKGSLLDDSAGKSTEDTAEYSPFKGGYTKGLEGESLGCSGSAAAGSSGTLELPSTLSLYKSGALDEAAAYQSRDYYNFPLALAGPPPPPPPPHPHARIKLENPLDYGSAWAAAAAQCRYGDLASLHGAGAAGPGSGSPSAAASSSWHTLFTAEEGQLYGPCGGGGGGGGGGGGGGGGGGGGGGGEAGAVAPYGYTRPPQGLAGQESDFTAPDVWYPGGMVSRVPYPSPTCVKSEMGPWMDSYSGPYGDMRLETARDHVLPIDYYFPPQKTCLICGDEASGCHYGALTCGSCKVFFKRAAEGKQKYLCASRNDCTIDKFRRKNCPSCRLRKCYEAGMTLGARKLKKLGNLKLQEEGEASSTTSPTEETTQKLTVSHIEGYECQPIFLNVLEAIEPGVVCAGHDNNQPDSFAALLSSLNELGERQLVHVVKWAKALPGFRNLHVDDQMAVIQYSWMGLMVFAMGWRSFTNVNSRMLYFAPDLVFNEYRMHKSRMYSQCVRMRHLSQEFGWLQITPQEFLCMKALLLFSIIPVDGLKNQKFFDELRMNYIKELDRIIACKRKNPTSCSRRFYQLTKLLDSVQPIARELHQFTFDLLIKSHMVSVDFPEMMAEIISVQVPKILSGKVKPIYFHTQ
UniProt Q92731, whole entry: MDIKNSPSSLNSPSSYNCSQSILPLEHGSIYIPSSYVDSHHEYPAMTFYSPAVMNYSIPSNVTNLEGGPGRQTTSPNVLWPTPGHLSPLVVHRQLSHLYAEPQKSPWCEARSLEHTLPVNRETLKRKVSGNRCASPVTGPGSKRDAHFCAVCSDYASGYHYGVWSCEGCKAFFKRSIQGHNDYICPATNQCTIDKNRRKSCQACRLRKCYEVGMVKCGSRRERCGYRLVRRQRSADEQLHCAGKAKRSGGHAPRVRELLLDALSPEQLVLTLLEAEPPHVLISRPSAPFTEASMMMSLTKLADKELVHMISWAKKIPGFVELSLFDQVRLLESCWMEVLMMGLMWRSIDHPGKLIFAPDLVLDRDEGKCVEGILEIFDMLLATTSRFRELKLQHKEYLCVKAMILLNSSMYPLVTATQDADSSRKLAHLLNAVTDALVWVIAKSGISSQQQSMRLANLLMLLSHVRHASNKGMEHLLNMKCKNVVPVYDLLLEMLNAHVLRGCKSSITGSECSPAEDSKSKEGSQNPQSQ

The nature of assay [1]: qHTS RealTime-Glo MT Cell Viability Assay in HEK293 cells - 8 hour (AID 1224887). Note: top concentration of the series differs between compounds; nearly all actives have a fitted effect of over 50% in size. The conditions noted are these: RealTime-Glo luminescence. An outline of the steps:
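Kinetic, non-lysing viability readout. Seed HEK293 (600/well) with reagent, incubate 5 h at 37 C/5% CO2, pin 23 nL compound in DMSO, incubate at 37 C, read luminescence at 0, 8, 16, 24, 32, 40 h.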

The nature of assay [2]: A CellTox Green Cytotoxicity Assay to monitor cytotoxicity in HepG2 cells - 8 hour (AID 1224890). Note: nearly all actives have a fitted effect of over 45% in size. An outline of the steps: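 Cytotoxicity was tracked as dead-cell DNA fluorescence in HepG2 cells treated with test compounds at 37 C; each time-point value comes from one kinetic series spanning 0, 8, 16, 24, 32 and 40 h.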
Assay [3] is described as follows: qHTS assay to identify small molecule antagonists of the androgen receptor (AR) signaling pathway using the MDA cell line in the presence of 0.5 nM R1881 - cell viability counter screen (AID 1259242). Note: nearly all actives have a fitted effect of over 45% in size. The conditions noted are these: MDA-kb2 viability, CellTiter-Fluor protease fluorescence, 16 h. In a few lines: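 Cells seeded at 3,000/well and allowed 5 hr at 37C, 0% CO2 before compound transfer and R1881 (0.5 nM final) addition; 16 hr later, live-cell protease fluorescence indicated cytotoxicity.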

The target in assay [4] is Estrogen receptor (Homo sapiens) (UniProt P03372). The assay is described as follows: qHTS assay to identify small molecule antagonists of the estrogen receptor alpha (ER-alpha) signaling pathway using the BG1 cell line in the presence of 0.1 nM 17-beta-estradiol (AID 1259244). Note: nearly all actives have a fitted effect of over 50% in size. The conditions noted are these: VM7Luc4E2 (BG1) ERE-luciferase, antagonist mode, 0.1 nM E2, 22 h; at 92.4 µM (top of the series) unless noted.

Assay [5] can be described thus: qHTS assay to identify small molecule HDAC inhibitors (AID 1259364). For activity change, negative = inhibition: top concentration of the series differs between compounds. Note: potency is the fitted concentration of half-maximal effect.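 Note: wild-type HCT-116 cells with endogenous class I/II HDAC activity; nearly all actives have a fitted effect of over 45% in size.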 An outline of the steps:
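HCT-116 wt cells, 1,500/well, overnight attach. Compounds (DMSO) 2 h, 37 °C. HDAC-Glo I/II, 30 min RT. Luminescence.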

Assay [6] is described as follows: qHTS assay to identify small molecule HDAC inhibitors - cell viability counter screen (AID 1259365). Note: nearly all actives have a fitted effect of over 50% in size. The conditions noted are these: HCT-116 viability, CellTiter-Glo ATP luminescence, 2 h. An outline of the steps:
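After overnight seeding at 1,500 cells per well, wild-type HCT-116 cultures took up compounds in DMSO for 2hr at 37 C. Viable cell content came from luminescence with CellTiter-Glo.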

The nature of assay [7]: qHTS assay to identify small molecule agonists of the sonic hedgehog signaling (Shh) pathway - cell viability counter screen (AID 1259366). Note: nearly all actives have a fitted effect of over 50% in size. An outline of the steps:
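Same-well cytotoxicity read. Gli1-Luc reporter 3T3 cells; compounds 24hr, 37C/5% CO2; CellTiter-Fluor fluorescence.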

The nature of assay [8]: qHTS assay to identify small molecule antagonists of the sonic hedgehog signaling (Shh) pathway (AID 1259369; calls by dose curve; note: nearly all actives have a fitted effect of over 45% in size). In a few lines: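 Read-out is luminescence from a firefly luciferase gene controlled by the Gli1 response element, in 3T3Gli1-Luc cells pre-incubated 4hr then exposed to compounds and conditioned medium for 24hr.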
Assay [9] concerns the target Androgen receptor (Homo sapiens) (UniProt P10275). Put plainly: qHTS assay to identify small molecule antagonists of the androgen receptor (AR) signaling pathway using the MDA cell line in the presence of 0.5 nM R1881 (AID 1259243). Note: nearly all actives have a fitted effect of over 50% in size. Note: potency is the fitted concentration of half-maximal effect.
Assay [10] deals with Estrogen receptor beta (Homo sapiens) (UniProt Q92731). The assay is described as follows: qHTS assay to identify small molecule agonists of the estrogen receptor beta (ER-beta) signaling pathway (AID 1259377; active = well fitted activation curve with a large enough effect in the signal ratio in the repeat runs, not every such curve was filed as active; the % refers to the signal ratio). The conditions noted are these: ER-beta-UAS-bla HEK293T, beta-lactamase FRET ratio, 16 h; at 92.4 µM (top of the series) unless noted.
Where [11] appears, read: at 76.8 µM (top of the series) unless noted.
Where [12] appears, read: at 92.4 µM (top of the series) unless noted.

Molecules are shown by their SMILES. “And” between values parts separate entries of the source, which are not always exact repeats. Equal values may be shown once. The list shows a part of the results, in another mix than the full data. Results filed as inconclusive are left out. The source made the active and inactive calls. Unless noted, calls come from the whole dose curve; as a rule, active = well fitted curve in the direction sought with a large enough effect in the repeat runs; inconclusive = weak or mixed curves; inactive = no such curve, though single readings can be large; an effect the other way counts as inactive or inconclusive.
% is set by controls: 0 for no effect and ±100 for the full control effect.

For the compound `CP(=O)(O)OCCC[Si](O)(O)O`, the activity change, negative = cytotoxicity was inactive: -1.25% in assay [1] (setting [11]) and inactive: -0.542% in [6] (setting [12]). The Potency entry in [2], in [5], in [7] and in assay [8] was “inactive” in each case. Besides, in assay [3] (at 92.4 µM (top of the series)), the viability change, negative = cytotoxic is inactive: 4.48%. For the same compound, the activity change, negative = inhibition in [4] was inactive: -0.215%.

With `N=C(N)N[N+](=O)[O-]`, the activity change, negative = cytotoxicity is inactive: -11.9% in [1] (setting [11]) and inactive: 0.976% in assay [6] (setting [12]). Moreover, the Potency entry in assay [2], in [9], in assay [5], in assay [7] and in [8] was “inactive” in each case. Further, the viability change, negative = cytotoxic in [3] (at 92.4 µM (top of the series)) was inactive: 1.48%. Further, in assay [4], the activity change, negative = inhibition was inactive: -6.43%.

For `CC(C)N(CCO)C(C)C`, the figures for the activity change, negative = cytotoxicity in assay [1] (setting [11]) and in assay [6] (setting [12]) were inactive: -3.85% and inactive: 2.42%, respectively. The Potency entry in [2], in [9], in assay [5] and in [7] was “inactive” throughout. Moreover, the viability change, negative = cytotoxic in assay [3] (at 92.4 µM (top of the series)) is inactive: -5.11%. The activation in assay [10] was inactive: -2.7%.

For the compound `OCCSCCO`, the activity change, negative = cytotoxicity in [1] (at 35.3 µM (top of the series)) is inactive: 0.999%; in assay [1] (at 76.8 µM (top of the series)) it was inactive: 0.0561%; in assay [6] (at 42.5 µM (top of the series)), inactive: -0.429%; in assay [6] (at 92.4 µM (top of the series)), inactive: 5.86%. Moreover, the Potency entry in assay [2], in [5], in [7] and in [8] was “inactive” throughout. Moreover, the values for the viability change, negative = cytotoxic in assay [3] (at 42.5 µM (top of the series)) and in [3] (at 92.4 µM (top of the series)) were inactive: 5.41% and inactive: 0.722%, respectively.

With `Cc1c([N+](=O)[O-])cccc1[N+](=O)[O-]`, the activity change, negative = cytotoxicity was inactive: -0.249% and inactive: 8.79% in assay [1] (setting [11]); inactive: -1.77% and inactive: -0.156% in assay [6] (setting [12]). Moreover, the Potency entry in assay [2], in assay [5], in assay [7] and in assay [8] was “inactive” each time. Also, in assay [3] (at 92.4 µM (top of the series)), the viability change, negative = cytotoxic was inactive: -1.23% and inactive: 0.979%.

Turning to `Cc1ccc([N+](=O)[O-])c([N+](=O)[O-])c1`, the activity change, negative = cytotoxicity in [1] (setting [11]) was inactive: -15.3% and inactive: -4.26%; in assay [6] (setting [12]), inactive: -3.85% and inactive: 1.47%. Also, in assay [4], the activity change, negative = inhibition is inactive: 42.6%. The Potency result in [5] was “inactive”.

`COP(C)(=O)OC`: in assay [1] (setting [11]), the activity change, negative = cytotoxicity was inactive: 4.41% and inactive: 0.0757%. In addition, the Potency result in assay [2], in [5], in [7] and in assay [8] was “inactive” in each case. Further, in [3] (at 92.4 µM (top of the series)), the viability change, negative = cytotoxic is inactive: 1.49% and inactive: -2.71%. The activity change, negative = inhibition in assay [4] is inactive: -0.167% and inactive: 0.32%. Besides, the activation in assay [10] is inactive: 0.169% and inactive: 0.439%.

In the case of `Cc1cccc([N+](=O)[O-])c1[N+](=O)[O-]`, the figures for the activity change, negative = cytotoxicity in assay [1] (setting [11]) and in assay [6] (setting [12]) were inactive: 5.83% [at 35.3 µM] and inactive: 9.82% [at 42.5 µM], respectively. For the same compound, the Potency result in assay [2] and in assay [7] was “inactive” throughout. The viability change, negative = cytotoxic in [3] (at 42.5 µM (top of the series)) is inactive: -7.3%. Further, the results for the Potency in assay [9] and in assay [5] were active: 45.8 µM and active: 18.3 µM, respectively.

Consider `CCOP(=O)(CC)Oc1ccc([N+](=O)[O-])cc1` (stereo not given), for which the figures for the activity change, negative = cytotoxicity in assay [1] (setting [11]) and in assay [6] (setting [12]) were inactive: -0.0579% [at 35.3 µM] and inactive: 1.87% [at 42.5 µM], respectively. The Potency entry in assay [2], in assay [5] and in assay [7] was “inactive” in each case. For the same compound, the viability change, negative = cytotoxic in assay [3] (at 42.5 µM (top of the series)) was inactive: -15.6%. Also, the Potency in assay [9] was active: 21.1 µM. Also, in assay [4], the activity change, negative = inhibition is inactive: -13.6% [at 42.5 µM].

On to `[NH4+].[O-][Cl+3]([O-])([O-])[O-]`, for which the activity change, negative = cytotoxicity is inactive: -0.418% and inactive: -0.429% in assay [1] (setting [11]); inactive: 2.11% and inactive: -0.0399% in assay [6] (setting [12]). Besides, the Potency result in [2], in [5], in [7] and in [8] was “inactive” throughout. In addition, in [3] (at 92.4 µM (top of the series)), the viability change, negative = cytotoxic was inactive: 2.66% and inactive: -1.81%. Besides, in assay [10], the activation is inactive: -0.177%.

`CC(C)OP(C)(=O)OC(C)C`: the activity change, negative = cytotoxicity in assay [1] (setting [11]) is inactive: -13.2% and inactive: 16.9%; in assay [6] (setting [12]), inactive: 2.9% and inactive: 2.86%. The Potency result in assay [2], in [5], in assay [7] and in [8] was “inactive” throughout. In assay [3] (at 92.4 µM (top of the series)), the viability change, negative = cytotoxic is inactive: -14.5% and inactive: -0.884%. In addition, the activation in assay [10] was inactive: -2.33% and inactive: -2.75%.
